Ab-95 light chain CDR variants: yeast mating affinities

All variants were tested on one target, the spike HR2 peptide PDVDLGDISGINAS (SARS-CoV-2).

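The starting antibody came from a phage panning campaign against this peptide. AAYL52 was designed without a model: most single CDR substitutions and a random sample of double and triple ones. AlphaSeq pools MATa yeast showing the antibodies with MATalpha yeast showing the peptide. The frequency of each diploid, read from paired DNA barcodes, reflects how well the two displayed proteins bind. Read counts were normalised to the haploid input and turned into Kd by a linear fit to BCL2-family pairs of known affinity, for each replicate. Each pool was mated in three replicate cultures.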

Parent scFv Ab-95: VH joined to VL by three GGGGS repeats. Changes lie in the light chain CDRs alone.
VH: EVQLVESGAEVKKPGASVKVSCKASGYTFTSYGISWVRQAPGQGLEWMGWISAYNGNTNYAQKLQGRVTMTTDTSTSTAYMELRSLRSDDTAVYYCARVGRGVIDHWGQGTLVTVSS
VL: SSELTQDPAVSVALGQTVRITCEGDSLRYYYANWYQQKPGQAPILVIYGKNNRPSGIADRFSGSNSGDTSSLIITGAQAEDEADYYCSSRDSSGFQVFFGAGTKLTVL

Positions count from residue 1 of the parent VL; D25C puts C in place of D.
Scale: log10 of Kd in nM, estimated from mating counts; low values are strong binders.
A mean of the replicates is given; it leaves out those without a signal.
"n.d." means that the variant was in the library but no mating with the target was seen in that replicate; the authors take this as a sign of poor binding, and no number exists.
Nonspecific signal, from three strains lacking the peptide, appeared in 28% of pairings of library AAYL52, centred on 3.91 (5% of these signals below 2.90); values are not corrected for it. For each scFv, signals with the empty controls are counted beside the result, with their mean in brackets.
For reference, the parent read 2.31 as the reference entry and 2.25 as a member of this library.

| # | changes | log10 Kd, replicates | log10 Kd (nM), mean | signal with controls |
|---|---|---|---|---|
| 1 | D25C/Y31N/V97Y | 3.02 / 2.90 / 2.74 | 2.89 | 2/9 (3.14) |
| 2 | S26I/L27N/Y31A | 2.67 / 2.93 / 2.33 | 2.64 | 3/9 (3.78) |
| 3 | Y31G/D91A/F98E | 2.94 / 2.49 / 3.73 | 3.05 | 3/9 (4.18) |
| 4 | N52Q/R53S/Q96I | 2.54 / 2.61 / 2.72 | 2.62 | 7/9 (3.98) |
| 5 | L27G/Y29K/D91Q | n.d. / n.d. / n.d. | n.d. | 2/9 (3.94) |
| 6 | G24T/L27K/N51S | 3.18 / 2.72 / 2.08 | 2.66 | 2/9 (4.29) |
| 7 | E23Y/Y30P/K50V | 2.10 / 2.10 / 1.58 | 1.93 | 4/9 (3.79) |
| 8 | N33E/N52H/S92D | n.d. / 2.83 / 3.99 | 3.41 | 2/9 (3.95) |
| 9 | N52C | n.d. / n.d. / n.d. | n.d. | 2/9 (3.39) |
| 10 | K50P/R53D/S93Q | 3.61 / 4.43 / 2.85 | 3.63 | 5/9 (3.70) |
| 11 | S26H/A32Y/S92Q | 4.67 / n.d. / 3.71 | 4.19 | 1/9 (2.95) |
| 12 | E23Y/S55A/V97N | 2.80 / 3.23 / 2.39 | 2.81 | 0/9 |
| 13 | Y30Q/A32T/S55W | 0.73 / 0.82 / -0.13 | 0.47 | 2/9 (3.35) |
| 14 | R28K/S55W/S92F | 2.69 / 2.82 / 3.74 | 3.08 | 5/9 (4.13) |
| 15 | S55C/S88Q/R90T | 2.56 / 3.03 / 1.71 | 2.43 | 1/9 (2.16) |
| 16 | S26Y/S55K/F95A | 3.04 / n.d. / 2.62 | 2.83 | 4/9 (3.38) |
| 17 | A32W/F95L/Q96R | 4.28 / 3.92 / 3.46 | 3.89 | 1/9 (3.25) |
| 18 | E23I/G24H/S92R | 2.79 / 2.84 / 2.52 | 2.72 | 6/9 (3.59) |
| 19 | P54M/R90P/S93M | 3.67 / 2.84 / 2.64 | 3.05 | 3/9 (4.66) |
| 20 | G49C/R53D/Q96G | n.d. / n.d. / n.d. | n.d. | 0/9 |
| 21 | E23I/S26G/F95G | 3.12 / 3.36 / 2.72 | 3.06 | 3/9 (3.84) |
| 22 | Y30Q/A32S/R90Y | 1.90 / 1.84 / 2.21 | 1.98 | 0/9 |
| 23 | L27S/G49I/Q96I | n.d. / n.d. / 4.10 | 4.10 | 2/9 (3.95) |
| 24 | K50S/P54R/S55V | 2.74 / n.d. / n.d. | 2.74 | 0/9 |
| 25 | G24L/R28V | 3.73 / 2.91 / 3.98 | 3.54 | 4/9 (3.73) |
| 26 | Y30M/P54M/F98P | 2.09 / 2.70 / 3.37 | 2.72 | 1/9 (5.06) |
| 27 | R28P/K50F/S55W | n.d. / 3.38 / 3.39 | 3.38 | 0/9 |
| 28 | S26C/G49T/S93P | 3.06 / n.d. / n.d. | 3.06 | 5/9 (3.65) |
| 29 | G24L/D25A/A32M | 3.34 / 3.73 / n.d. | 3.53 | 3/9 (4.96) |
| 30 | Y29H/S89W/Q96L | n.d. / n.d. / 3.76 | 3.76 | 1/9 (4.61) |
| 31 | S89E/D91W/S93P | 2.83 / 4.26 / n.d. | 3.55 | 2/9 (4.18) |
| 32 | Y30V/Y31H | 1.57 / 1.61 / 1.75 | 1.64 | 1/9 (3.25) |
| 33 | S92L | 3.06 / 2.41 / 2.49 | 2.66 | 3/9 (4.08) |
| 34 | D25F/P54S/S93L | 3.26 / 3.12 / 3.11 | 3.16 | 4/9 (4.41) |

The 4 strongest on average among those seen in every replicate, once more:

changes,"log10 Kd, replicates","log10 Kd (nM), mean",signal with controls
Y30Q/A32T/S55W,0.73 / 0.82 / -0.13,0.47,2/9 (3.35)
Y30V/Y31H,1.57 / 1.61 / 1.75,1.64,1/9 (3.25)
E23Y/Y30P/K50V,2.10 / 2.10 / 1.58,1.93,4/9 (3.79)
Y30Q/A32S/R90Y,1.90 / 1.84 / 2.21,1.98,0/9

From the AlphaSeq antibody data of Engelhart et al. 2022 (doi:10.1038/s41597-022-01779-4), copy in the FLAb collection.